Legend:
HaTCat cells = test: DNA content by propidium iodide staining and FACS, HaTCat cells; assay type: cell-based, human; conditions: confluent (resting) HaTCat cells
Excerpt: A graphical representation of DNA content of cells as collected by propidium iodide staining and subsequent FACS analysis. G0/G1, S, and G2M phases are depicted of cells either treated or not treated with cell permeable peptides. The percentage of untreated cell in a given phase are in white, PAP's CRM in (SEQ ID NO: 3) black, p21's in gray (SEQ ID NO: 5), scrambled in horizontal stripes (SEQ ID NO: 4), internalization sequence alone in vertical stripes (SEQ ID NO: 2).
(A) PAP's CRM (SEQ ID NO: 3) kills growing HaTCats, but stimulates S-phase entry of stationary HaTCats. The bar graph depicts the fold induction over non-treated cells of sub-G1 DNA content and S-phase DNA content of four different populations of cells. The percentage of cells found S-phase of each population is noted below the bar graph. Sub-G1 DNA content and S-phase DNA content are depicted of cells either treated or not treated with cell permeable peptides. […]
Panel B of FIG. 7 is a graphical representation of DNA content of cells, derived from propidium iodide staining and subsequent the fluorescence-activated cell sorter (FACS) analysis. […]
(§1) After treatment with or without cell membrane permeable peptides (Synpep), cells were trypsinized, centrifuged and washed in PBS. […] The cells were then applied to the fluorescence-activated cell sorter (FACSCalibur; Becton Dickson). […]

Sequences of proteins named here, by UniProt entry; tags and fusion partners are left off.
UniProt P14635, whole entry: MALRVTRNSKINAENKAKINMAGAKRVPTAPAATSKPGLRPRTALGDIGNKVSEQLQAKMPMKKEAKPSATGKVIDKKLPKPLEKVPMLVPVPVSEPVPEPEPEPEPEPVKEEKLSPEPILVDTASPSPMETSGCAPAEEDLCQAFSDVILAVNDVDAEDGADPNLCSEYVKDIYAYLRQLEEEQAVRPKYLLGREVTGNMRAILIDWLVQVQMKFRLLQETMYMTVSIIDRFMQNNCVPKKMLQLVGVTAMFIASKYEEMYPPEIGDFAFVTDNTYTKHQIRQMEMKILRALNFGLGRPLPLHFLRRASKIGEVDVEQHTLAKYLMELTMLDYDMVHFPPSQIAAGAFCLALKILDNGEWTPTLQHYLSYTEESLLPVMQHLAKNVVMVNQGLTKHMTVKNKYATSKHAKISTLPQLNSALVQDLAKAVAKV

[1] = target: PAP-cyclin B1 interaction (Homo sapiens, UniProt P14635); test: GST-cyclin B1 pull-down assay of PAP binding
MEFs = test: DNA content by propidium iodide staining and FACS, mouse embryo fibroblasts; assay type: cell-based; conditions: sub-confluent MEFs, one hour; SEQ ID NO:3 1.87-30 μM, controls 30 μM
Experimental: (A) PAP's CRM stimulates both the percentage of cells with sub-G1 DNA content and S-phase DNA content in a dose dependent manner. DNA content as measured by FACS analysis is graphically represented.
(B) PAP's CRM stimulates cell death over time. The percentage of cells with a sub-G1 DNA content with or without treatment with 30 μM of PAP's CRM (SEQ ID NO: 3) for varying lengths of time is shown.
(C) The percents of cells with G0/G1 (in black), S (in gray), and G2/M (in white) DNA contents of the same population of cells in (B) are depicted.
Panel A depicts the MEF's response to a concentration curve of SEQ ID NO:3. […]
To further study the MEF's reactions to the membrane permeable peptide, SEQ ID NO:3, and to determine if the increase in S-phase depicts a stimulation or inhibition of proliferation, treatment with one concentration was followed at varying time points. Sub-confluent MEFs were treated with 30 μM SEQ ID NO:3, harvested at different time points, and their DNA content was analyzed by propidium iodide staining and subsequent FACS analysis. FIG. 10 panel B depicts the percentage of death initiated over time, as measured by sub-G1 DNA content. […]
as §1

SEQ ID NO:5: 8-mer peptide spanning the CRM of p21 (a cdk inhibitor); fused to penetratin in cell tests (KACRRLFG; listed as Homo Sapiens) [reference compound]
S-phase population of cells (HaTCat cells): not observed
association of purified bacterial his-PAP I with GST-cyclin B1 ([1]; 2, 10 and 20 μM peptide, Western blot with anti-PAP antibody): no effect
percentage of cells with S-phase DNA content (MEFs): No effects
percentage of cells with sub-G1 DNA content (MEFs): No effects

SKIRILVG (poly(A) polymerase cyclin recognition motif) [SEQ ID NO:1]
interaction between PAP and cyclin B1 ([1]; 40 and 70 μM peptide, in vitro translated 35S-labeled PAP I): disruption of the interaction
PAP I binding to cyclin B1 ([1]; lower concentrations of peptide (9 and 18 μM), in vitro translated 35S-labeled PAP I): dramatic stimulation of binding
